# Data published in patent publication US5571685A (priority 1992, dated 1996).
# Protein sequences, listed by entry. Tags and fused reporters are not part of them.
# UniProt Q51990, entry or part of it: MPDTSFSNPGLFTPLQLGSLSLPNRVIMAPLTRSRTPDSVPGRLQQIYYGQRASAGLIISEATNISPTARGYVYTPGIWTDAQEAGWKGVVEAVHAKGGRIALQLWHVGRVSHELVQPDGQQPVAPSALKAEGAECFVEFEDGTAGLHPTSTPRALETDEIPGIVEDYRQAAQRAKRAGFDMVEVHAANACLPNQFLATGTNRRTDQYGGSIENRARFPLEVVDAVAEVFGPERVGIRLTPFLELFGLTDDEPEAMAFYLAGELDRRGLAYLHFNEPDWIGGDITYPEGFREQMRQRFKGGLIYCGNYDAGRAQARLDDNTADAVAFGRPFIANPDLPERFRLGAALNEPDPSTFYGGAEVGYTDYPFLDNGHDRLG
# Molecular target: morphinone reductase (Pseudomonas putida, UniProt Q51990)
# Settings: reverse reaction
compound,measurement,value
CN1CC[C@]23c4c5ccc(O)c4O[C@H]2C(=O)CC[C@H]3[C@H]1C5 [hydromorphone],Enzyme activity in the reverse direction,No activity in the reverse direction
